Experimental findings from PMC12299981, “Human Metabolism of Sirolimus Revisited” (Metabolites, 2025) are described below.

This series relates to pooled human liver microsomes (HLM). The series is described as follows: Formation kinetics of SRL metabolites by pooled human liver microsomes. The class given is in vitro ADME. As to conditions: for Km: apparent Km of formation of the metabolite from sirolimus, Michaelis–Menten fit, n = 4; for CLint: apparent intrinsic clearance of formation of the metabolite, CLint = Vmax/Km. As for the experimental part: Apparent enzyme kinetic parameters for the major SRL metabolites were assessed. […] Before the addition of the SRL, the NADPH-generating system was preincubated at 37 °C (type C24 incubator shaker, New Brunswick Scientific, Edison, NJ, USA) for 5 min. […] The final volume of the reaction solution was 500 μL, and the reaction was quenched by the addition of a 1:1 volume of ice-cold acetonitrile. Following protein precipitation, samples were briefly vortexed and subsequently centrifuged at 4 °C and 13,000× g for 10 min. The supernatant was transferred to a 2-mL HPLC glass vial and analyzed using high-performance liquid chromatography/tandem mass spectrometry (LC-MS/MS). Representative control incubations without HLMs, without drug, or without the NADPH-generating system (all in quadruplicate) were carried out under the same conditions with every SRL HLM metabolism batch.
For data analysis, we utilized Sciex Analyst Software (version TF1.7.1) to process and interpret mass spectrometry data. […] Kinetics data was fitted using the GraphPad Prism Enzyme Kinetics Module (Version 10.0.2, for Windows, GraphPad Software, Boston, MA, USA).
The formation rates of hydroxy SRL and desmethyl SRL were analyzed and fitted using Michaelis–Menten kinetics. This approach enables the determination of kinetic parameters such as Vmax (maximum reaction velocity) and Km (substrate concentration at half-maximal velocity), which provide insight into the enzymatic activity and substrate affinity for these metabolites. […] To compare the formation of the various metabolites and to predict the human hepatic clearance, the apparent intrinsic clearances of the formation of the metabolites (CLint = Vmax/Km) were calculated.
For orientation: Liver microsomes are a subcellular fraction often used to study metabolism.

Usually Km stands for the substrate concentration at which the rate is half of its maximum. 11-Hydroxy sirolimus [11-Hydroxy SRL]: the Km was determined as 9.58 µM and the CLint is listed as 0.65 µL/mg protein/min.
For “23/24-Hydroxy sirolimus [23/24-Hydroxy SRL]” the same measures were 20.8 µM and 0.11 µL/mg protein/min.
Regarding “27-O-Desmethyl sirolimus [27-O-desmethyl SRL]”, the CLint was 0.06 µL/mg protein/min.
